Results reported in article PMC10746543, “Design principles for cyclin K molecular glue degraders” (Nature Chemical Biology, 2023).
Values joined by “and” are separate entries in the source; they are usually repeats but may differ in a detail not shown here. Identical values can stand only once.

Key:
[1] = system: cyclin K–eGFP degradation reporter; assay: Cyclin K reporter stability analysis (dual-color cyclin K–eGFP reporter); type: cell-based, human; conditions: HEK293T, cyclin K reporter assay
HEK293T cells = assay: Drug sensitivity assay (CellTiter-Glo viability) with or without MLN4924 pretreatment; type: cell-based, human; conditions: Supplementary Table 2

CC(C)S(=O)(=O)c1ccccc1Nc1nc(N[C@@H]2CCCN(CCCCCCCCNC(=O)COc3cccc4c3C(=O)N(C3CCC(=O)NC3=O)C4=O)C2)ncc1Cl (some centres unmarked)
Normalized GFP/mCheery ([1]; 5 nM): 0.9577 and 0.966 | Round/mCherry ¦ Median (FITC-A :: null) ([1]; 5 nM): 860 and 848 | Round/mCherry ¦ Median (PE-CF594-A :: null) ([1]; 5 nM): 2538 and 2481 | Normalized GFP/mCheery ([1]; 10.7 nM): 0.959 and 0.9407 | Round/mCherry ¦ Median (FITC-A :: null) ([1]; 10.7 nM): 873 and 868 | Round/mCherry ¦ Median (PE-CF594-A :: null) ([1]; 10.7 nM): 2573 and 2608 | Normalized GFP/mCheery ([1]; 22.9 nM): 0.8954 and 0.9462 | Round/mCherry ¦ Median (FITC-A :: null) ([1]; 22.9 nM): 831 and 840 | Round/mCherry ¦ Median (PE-CF594-A :: null) ([1]; 22.9 nM): 2623 and 2509 | Normalized GFP/mCheery ([1]; 48.9 nM): 0.8876 and 0.9112 | Round/mCherry ¦ Median (FITC-A :: null) ([1]; 48.9 nM): 830 and 844 | Round/mCherry ¦ Median (PE-CF594-A :: null) ([1]; 48.9 nM): 2643 and 2618 | Normalized GFP/mCheery ([1]; 105 nM): 0.9407 and 0.9131 | Round/mCherry ¦ Median (FITC-A :: null) ([1]; 105 nM): 868 and 849 | Round/mCherry ¦ Median (PE-CF594-A :: null) ([1]; 105 nM): 2608 and 2628 | Normalized GFP/mCheery ([1]; 224 nM): 0.9038 and 0.9118 | Round/mCherry ¦ Median (FITC-A :: null) ([1]; 224 nM): 842 and 851 | Round/mCherry ¦ Median (PE-CF594-A :: null) ([1]; 224 nM): 2633 and 2638 | Normalized GFP/mCheery ([1]; 478 nM): 0.9081 and 0.9104 | Round/mCherry ¦ Median (FITC-A :: null) ([1]; 478 nM): 846 and 853 | Round/mCherry ¦ Median (PE-CF594-A :: null) ([1]; 478 nM): 2633 and 2648 | Normalized GFP/mCheery ([1]; 2190 nM): 0.9153 and 0.9113 | Round/mCherry ¦ Median (FITC-A :: null) ([1]; 2190 nM): 864 and 877 | Round/mCherry ¦ Median (PE-CF594-A :: null) ([1]; 2190 nM): 2668 and 2720 | Normalized GFP/mCheery ([1]; 4680 nM): 0.9089 and 0.9053 | Round/mCherry ¦ Median (FITC-A :: null) ([1]; 4680 nM): 858 and 853 | Round/mCherry ¦ Median (PE-CF594-A :: null) ([1]; 4680 nM): 2668 and 2663 | Normalized GFP/mCheery ([1]; 10000 nM): 0.9331 and 0.9218 | Round/mCherry ¦ Median (FITC-A :: null) ([1]; 10000 nM): 866 and 849 | Round/mCherry ¦ Median (PE-CF594-A :: null) ([1]; 10000 nM): 2623 and 2603 | Toxicity rescue (HEK293T cells; MLN4924-mediated cytotoxicity rescue, 10 µM used where n.d.): 230% | EC50 (HEK293T cells; read-out: Cellular assays EC50, HEK293T viability, 72 h, compound alone): 155 nM
